In patent publication US8207144B2, “Sodium salt of disaccharide compound, production method and use of same” (Eisai R & D Management Co., Ltd., priority 2006, dated 2012):

Assay: Storage stability test (formation of impurities A, B and C by HPLC)
Format: physicochemical
Settings: storage at 25° C., converted to monthly rate from area percent
Description: The salts of Examples 2 to 4 and Comparative Example 1 were placed in a screw-cap glass bottle and stored for 30 days at 25° C. followed by determination of formation rates of impurities A, B and C as described below.
Each salt of Examples 2 to 4 and Comparative Example 1 was dissolved in methanol to prepare a solution having a concentration of 5 mg/mL. When HPLC analysis was carried out under the conditions indicated in Table 1 below on each solution and a blank solution (methanol only), three types of decomposition products were confirmed. Consequently, formation rates (converted to monthly rates) were calculated for each of the three types of decomposition products (impurities A, B and C) using the area percent.

Structure (SMILES) | Impurity A Formation rate [%/month] | Impurity B Formation rate [%/month] | Impurity C Formation rate [%/month] | Impurity A Formation rate (listed as 2.84 Na Salt) [%/month] | Impurity B Formation rate (listed as 2.84 Na Salt) [%/month] | Impurity A Formation rate (listed as 3.67 Na Salt) [%/month] | Impurity B Formation rate (listed as 3.67 Na Salt) [%/month] | Impurity C Formation rate (listed as 3.67 Na Salt) [%/month] | Impurity A Formation rate (listed as 3.93 Na Salt) [%/month] | Impurity B Formation rate (listed as 3.93 Na Salt) [%/month] | Impurity C Formation rate (listed as 3.93 Na Salt) [%/month]
CCCCCC/C=C\CCCCCCCCCC(=O)NC1C(OCC2OC(OP(=O)([O-])[O-])C(NC(=O)CC(=O)CCCCCCCCCCC)C(OCCCCCCCCCC)C2O)OC(COC)C(OP(=O)([O-])[O-])C1OCCC(CCCCCCC)OC.[Na+].[Na+].[Na+].[Na+] (centres unmarked) [Comparative Example 1, reference compound] | 0.729 | 3.117 | 0.033 | – | – | – | – | – | – | – | –
CCCCCC/C=C\CCCCCCCCCC(=O)N[C@H]1[C@H](OC[C@H]2O[C@H](OP(=O)(O)O)[C@H](NC(=O)CC(=O)CCCCCCCCCCC)[C@@H](OCCCCCCCCCC)[C@@H]2O)O[C@H](COC)[C@@H](OP(=O)(O)O)[C@@H]1OCC[C@@H](CCCCCCC)OC [Example 2] | 0.000 | 0.000 | 0.282 | 0.00 | 0.00 | – | – | – | – | – | –
CCCCCC/C=C\CCCCCCCCCC(=O)N[C@H]1[C@H](OC[C@H]2O[C@H](OP(=O)([O-])[O-])[C@H](NC(=O)CC(=O)CCCCCCCCCCC)[C@@H](OCCCCCCCCCC)[C@@H]2O)O[C@H](COC)[C@@H](OP(=O)([O-])[O-])[C@@H]1OCC[C@@H](CCCCCCC)OC.[Na+].[Na+].[Na+].[Na+] [Example 3] | 0.072 | 0.267 | 0.072 | – | – | 0.072 | 0.267 | 0.072 | – | – | –
CCCCCC/C=C\CCCCCCCCCC(=O)N[C@H]1[C@H](OC[C@H]2O[C@H](OP(=O)([O-])[O-])[C@H](NC(=O)CC(=O)CCCCCCCCCCC)[C@@H](OCCCCCCCCCC)[C@@H]2O)O[C@H](COC)[C@@H](OP(=O)([O-])[O-])[C@@H]1OCC[C@@H](CCCCCCC)OC.[Na+].[Na+].[Na+].[Na+] [Example 4] | 0.363 | 1.455 | 0.063 | – | – | – | – | – | 0.363 | 1.455 | 0.063
